Laboratory results taken from patent US12650422B2, “Utility of protein in the prediction of in vivo effects” (Qualyst Transporter Solutions, LLC, priority 2014, dated 2026).

Sequences of proteins named here, by UniProt entry; tags and fusion partners are left off.
UniProt P11712, whole entry: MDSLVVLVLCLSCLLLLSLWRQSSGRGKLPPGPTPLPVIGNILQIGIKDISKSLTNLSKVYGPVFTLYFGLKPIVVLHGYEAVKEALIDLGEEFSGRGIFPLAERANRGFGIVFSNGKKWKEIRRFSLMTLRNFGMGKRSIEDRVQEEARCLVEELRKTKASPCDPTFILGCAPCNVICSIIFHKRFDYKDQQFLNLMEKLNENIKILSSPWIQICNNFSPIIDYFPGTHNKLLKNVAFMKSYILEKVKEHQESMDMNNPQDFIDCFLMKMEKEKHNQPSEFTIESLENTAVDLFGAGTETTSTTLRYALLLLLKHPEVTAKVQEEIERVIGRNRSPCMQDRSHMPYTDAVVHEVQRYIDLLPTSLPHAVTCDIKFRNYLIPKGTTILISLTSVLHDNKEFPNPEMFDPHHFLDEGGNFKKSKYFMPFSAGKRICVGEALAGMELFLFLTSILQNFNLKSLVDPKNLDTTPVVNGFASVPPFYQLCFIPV

Tests used:
[1] = target: CYP2C9 (Homo sapiens, UniProt P11712); assay: cell-based; conditions: Estimated IC50 (μM)
Method: Sandwich-Cultured Hepatocytes (SCH) were prepared using freshly isolated hepatocytes or cryopreserved hepatocytes. Freshly isolated hepatocytes were plated on 24-well cell culture plates, rinsed and fed with the appropriate species specific Qualyst Transporter Solutions (QTS, Durham, North Carolina, United States of America) propriety culture medium (QualGro™). Cells were maintained in the appropriate species specific medium until consumed in studies.
Cryopreserved hepatocytes were thawed following manufacturer's thawing instructions. Cryopreserved hepatocytes were subsequently suspended in QTS propriety hepatocyte seeding medium (QualGro™ Seeding Medium) at a density of 0.7-0.8 million viable cells/mL onto BioCoat® 24-well cell culture plates. Following plating, cells were allowed to attach for 2-4 hours, rinsed and fed with warm (37° C.) seeding medium. Eighteen to 24 hours later, cells were fed and overlaid with the appropriate species specific QTS propriety culture medium (QualGro™) supplemented with extracellular matrix (ECM), Matrigel® (0.25 mg/mL). Cells were maintained in QualGro™ Hepatocyte Culture Medium until consumed in studies.
Cells were cultured as described above through day 6 of culture. […]
In situ incubations were analyzed for the detection of P450 mediated metabolite formation of hydroxymidazolam from midazolam and hydroxyibuprofen from ibuprofen. […]

[2] = system: Rat Hepatocytes; assay: Hepatic intracellular concentration (ICC) in rat hepatocytes, observed vs predicted; type: in vitro ADME; conditions: 1 μM; for Predicted ICC (uM) HBSS: absence of protein (HBSS), adjusted with free fraction of Table 1; for Observed ICC (uM) BSA: one-step method with BSA
Excerpt: The hepatic intracellular concentration (ICC) of a compound, which reflects the balance of the uptake, metabolism, and efflux out of the cell, can also be determined in the absence and presence of protein.

IC50 ([1]; 4% BSA)	IC50 ([1]; No BSA)	Predicted ICC (uM) HBSS [2]	Observed ICC (uM) BSA [2]	SMILES
27.1 µM	56.2 µM			OC(Cn1cncn1)(Cn1cncn1)c1ccc(F)cc1F [Fluconazole]
		1.29 µM	4.15 µM	O=C(O)C[C@H](O)C[C@H](O)/C=C/c1c(C2CC2)nc2ccccc2c1-c1ccc(F)cc1 [Pitavastatin]
		1.10 µM	2.36 µM	CC[C@H](C)C(=O)O[C@H]1C[C@H](O)C=C2C=C[C@H](C)[C@H](CC[C@@H](O)C[C@@H](O)CC(=O)O)[C@H]21 [Pravastatin]
